Laboratory results: ChEMBL document CHEMBL5226285, “The long and winding road of designing phosphodiesterase inhibitors for the treatment of heart failure” (Eur J Med Chem, 2021)

By UniProt entry, the sequences of proteins in these tests, tags left out. Where a name states a change or a piece, a line headed by the entry shows the natural chain unless it says otherwise.
UniProt O76083: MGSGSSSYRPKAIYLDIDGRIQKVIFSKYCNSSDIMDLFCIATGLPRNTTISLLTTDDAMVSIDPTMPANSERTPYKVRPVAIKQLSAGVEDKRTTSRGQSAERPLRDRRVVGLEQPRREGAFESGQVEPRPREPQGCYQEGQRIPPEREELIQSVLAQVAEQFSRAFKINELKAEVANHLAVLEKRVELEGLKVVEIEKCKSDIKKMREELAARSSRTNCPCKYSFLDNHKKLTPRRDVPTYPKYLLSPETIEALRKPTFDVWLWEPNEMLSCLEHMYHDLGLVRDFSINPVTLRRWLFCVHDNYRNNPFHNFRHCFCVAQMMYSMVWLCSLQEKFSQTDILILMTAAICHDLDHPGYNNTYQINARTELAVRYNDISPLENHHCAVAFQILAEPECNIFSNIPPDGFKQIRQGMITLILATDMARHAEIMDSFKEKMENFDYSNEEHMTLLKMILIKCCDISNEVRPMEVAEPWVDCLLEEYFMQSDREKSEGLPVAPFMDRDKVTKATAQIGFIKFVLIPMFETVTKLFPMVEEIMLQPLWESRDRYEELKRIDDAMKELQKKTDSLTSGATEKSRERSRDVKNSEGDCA

Target: High affinity cGMP-specific 3',5'-cyclic phosphodiesterase 9A (Homo sapiens, UniProt O76083)

| IC50 [nM] | SMILES |
| --- | --- |
| 56 | C[C@@H](Nc1nc2c(cnn2C2CCCC2)c(=O)[nH]1)c1ccc(Cl)cc1 |
| 11 | C[C@H](Nc1nc2c(cnn2C2CCCC2)c(=O)[nH]1)c1ccc(Cl)cc1 |
